Patent US20090221653A1, “7-(2-amino-1-hydroxy-ethyl)-4-hydroxybenzothiazol-2(3H)-one-derivatives as beta2 adrenoreceptor agonists” (AstraZeneca AB, priority 2005, published 2009)
Structures can show the parent of a compound that is named as a salt.

The chains behind the UniProt entries cited, without tags or fusion partners. Residues count along the entry.
UniProt P08588, whole entry: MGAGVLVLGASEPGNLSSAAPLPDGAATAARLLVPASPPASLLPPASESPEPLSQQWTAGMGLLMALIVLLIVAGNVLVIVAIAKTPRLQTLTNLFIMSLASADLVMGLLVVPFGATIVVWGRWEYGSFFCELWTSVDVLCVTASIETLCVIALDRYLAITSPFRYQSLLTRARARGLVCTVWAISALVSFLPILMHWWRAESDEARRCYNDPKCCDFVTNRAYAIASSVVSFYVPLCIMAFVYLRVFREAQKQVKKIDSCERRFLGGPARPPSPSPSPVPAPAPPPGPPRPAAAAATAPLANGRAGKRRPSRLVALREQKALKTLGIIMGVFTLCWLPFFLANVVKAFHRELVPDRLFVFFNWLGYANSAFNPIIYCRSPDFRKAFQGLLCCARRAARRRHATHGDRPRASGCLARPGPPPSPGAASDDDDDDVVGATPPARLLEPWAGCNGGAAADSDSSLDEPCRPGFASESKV
UniProt P07550, whole entry: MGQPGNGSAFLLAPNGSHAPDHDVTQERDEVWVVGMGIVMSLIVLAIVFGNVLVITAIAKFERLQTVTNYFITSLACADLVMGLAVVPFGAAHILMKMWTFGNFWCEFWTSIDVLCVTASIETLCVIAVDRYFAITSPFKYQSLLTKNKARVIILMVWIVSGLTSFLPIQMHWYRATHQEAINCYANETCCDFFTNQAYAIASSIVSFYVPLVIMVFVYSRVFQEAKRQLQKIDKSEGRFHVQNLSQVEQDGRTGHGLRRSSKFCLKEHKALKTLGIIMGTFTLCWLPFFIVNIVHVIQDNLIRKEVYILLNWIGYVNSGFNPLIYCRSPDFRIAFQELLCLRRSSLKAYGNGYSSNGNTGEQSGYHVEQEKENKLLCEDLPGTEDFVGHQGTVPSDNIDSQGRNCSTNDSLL
UniProt P14416, 1-414 isoform P14416-2: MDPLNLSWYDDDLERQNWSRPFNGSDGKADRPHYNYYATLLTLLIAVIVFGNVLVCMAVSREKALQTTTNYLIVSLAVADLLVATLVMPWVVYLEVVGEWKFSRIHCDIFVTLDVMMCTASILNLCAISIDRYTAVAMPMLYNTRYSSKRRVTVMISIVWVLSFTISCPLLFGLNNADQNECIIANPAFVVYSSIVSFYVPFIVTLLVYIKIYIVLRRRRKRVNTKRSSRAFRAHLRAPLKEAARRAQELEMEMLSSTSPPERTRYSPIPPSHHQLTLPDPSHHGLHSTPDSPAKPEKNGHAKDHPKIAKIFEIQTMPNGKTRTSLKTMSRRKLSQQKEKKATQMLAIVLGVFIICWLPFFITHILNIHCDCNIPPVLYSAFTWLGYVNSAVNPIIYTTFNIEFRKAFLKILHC

Tests used:
[1] = target: T1, recombinant human adrenergic beta 1 receptors (Homo sapiens, UniProt P08588); test: Adrenergic β1 selectivity assay, inhibition of [125I]-Iodocyanopindolol binding; details: membranes, read-out: β1 bind pIC50 (converted)
T1 construct: purchased Euroscreen

[2] = target: T2, Adrenergic β2 (Homo sapiens, UniProt P07550); test: Alternative Adrenergic β2 Mediated cAMP Production in H292 cells (AlphaScreen cAMP detection); assay type: cell-based; details: test compounds incubated 60 minutes, 300 μM rolipram, read-out: β2 pEC50 (converted)
T2 construct: H292 cells were grown in RPMI; endogenous in cells; host or cells: H292 cells

[3] = target: T3, recombinant human Dopamine Subtype D2s receptors (Homo sapiens, UniProt P14416); test: Dopamine D2 selectivity assay, inhibition of [3H]-spiperone binding; details: membranes, [3H]-spiperone 0.16 nM; read-out: D2 bind pIC50 (converted)
T3 construct: purchased Perkin Elmer

For `CCOc1ccc(CCNCCCSCCNC[C@H](O)c2ccc(O)c3[nH]c(=O)sc23)cc1` [Example 16, 7-[(1R)-2-({2-[(3-{[2-(4-Ethoxyphenyl)ethyl]amino}propyl)thio]ethyl}amino)-1-hydroxyethyl]-4-hydroxy-1,3-benzothiazol-2(3H)-one], the IC50 [1] was 0.126 µM, the EC50 [2] was 0.0126 µM and the IC50 [3] was 3.98 µM.

In the case of `O=c1[nH]c2c(O)ccc([C@@H](O)CNCCOCCCNCCc3cccc(Cl)c3)c2s1` [Example 36, 7-((1R)-2-{[2-(3-{[2-(3-Chlorophenyl)ethyl]amino}propoxy)ethyl]amino}-1-hydroxyethyl)-4-hydroxy-1,3-benzothiazol-2(3H)-one], the IC50 [3] was 3.16 µM.

`O=c1[nH]c2c(O)ccc([C@@H](O)CNCCSCCCNCCc3cccc(Cl)c3Cl)c2s1` [Example 38, 7-[(1R)-2-({2-[(3-{[2-(2,3-Dichlorophenyl)ethyl]amino}propyl)thio]ethyl}amino)-1-hydroxyethyl]-4-hydroxy-1,3-benzothiazol-2(3H)-one dihydrochloride] gave an IC50 [1] of 0.0794 µM.
